Test: Chemical stability of everolimus derivatives (hydrolytic cleavage / elimination)
Type: physicochemical
Text: The oxime derivate (activated ester) would be a desirable candidate in various assays, including latex enhanced immunoturbidimetric assays.
RAD-822 may be used in various embodiments of the present invention. This compound is used herein in an illustrative FPIA embodiment with an ester modified linker at position 28. […] Thus, RAD 822 is not optimal for other embodiments requiring vigorous heat stressing conditions, such as QMS® technology (Seradyn, Indianapolis, Ind.).

Everolimus-O-carboxymethyl-32-oxime [oxime derivative (position 32)]
chemical stability: will not undergo an elimination reaction in most useful conditions
